Values of other authors in patent US20040175402A1, “Formulation” (priority 2001, published 2004).

By UniProt entry, the sequences of proteins in these tests, tags left out.
UniProt P03372, whole entry: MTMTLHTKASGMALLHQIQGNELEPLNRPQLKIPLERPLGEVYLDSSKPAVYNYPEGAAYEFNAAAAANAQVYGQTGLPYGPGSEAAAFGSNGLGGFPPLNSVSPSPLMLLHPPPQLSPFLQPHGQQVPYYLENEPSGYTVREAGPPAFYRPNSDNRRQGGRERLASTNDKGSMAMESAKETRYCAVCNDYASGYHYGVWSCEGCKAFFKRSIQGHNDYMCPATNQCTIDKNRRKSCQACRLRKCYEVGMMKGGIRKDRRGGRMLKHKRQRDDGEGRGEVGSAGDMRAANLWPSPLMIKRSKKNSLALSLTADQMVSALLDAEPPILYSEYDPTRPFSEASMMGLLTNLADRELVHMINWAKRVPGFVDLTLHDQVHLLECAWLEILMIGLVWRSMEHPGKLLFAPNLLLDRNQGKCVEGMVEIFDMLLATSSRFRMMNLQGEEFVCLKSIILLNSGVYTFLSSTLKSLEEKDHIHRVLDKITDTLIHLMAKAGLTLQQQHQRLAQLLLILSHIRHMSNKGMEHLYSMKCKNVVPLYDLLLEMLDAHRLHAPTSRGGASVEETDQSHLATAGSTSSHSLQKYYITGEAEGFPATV

Molecular target: ER (Homo sapiens, UniProt P03372)
Settings: compared with oestradiol

affinity for ER: affinity similar to that of oestradiol
Compound: C[C@]12CC[C@@H]3c4ccc(O)cc4C[C@@H](CCCCCCCCC[S+]([O-])CCCC(F)(F)C(F)(F)F)[C@H]3[C@@H]1CC[C@@H]2O (stereo partly drawn) [Fulvestrant, 7α-[9-(4,4,5,5,5-Pentafluoropentylsulphinyl)nonyl]oestra-1,3-5(10)-triene-3,17β-diol]
